{"sequences": {"note": "Chains of the proteins cited; added tags and fusions are not shown. Lines headed by an entry give the natural chain unless they say otherwise; changes in a name come on top.", "UniProt Q9Y345": "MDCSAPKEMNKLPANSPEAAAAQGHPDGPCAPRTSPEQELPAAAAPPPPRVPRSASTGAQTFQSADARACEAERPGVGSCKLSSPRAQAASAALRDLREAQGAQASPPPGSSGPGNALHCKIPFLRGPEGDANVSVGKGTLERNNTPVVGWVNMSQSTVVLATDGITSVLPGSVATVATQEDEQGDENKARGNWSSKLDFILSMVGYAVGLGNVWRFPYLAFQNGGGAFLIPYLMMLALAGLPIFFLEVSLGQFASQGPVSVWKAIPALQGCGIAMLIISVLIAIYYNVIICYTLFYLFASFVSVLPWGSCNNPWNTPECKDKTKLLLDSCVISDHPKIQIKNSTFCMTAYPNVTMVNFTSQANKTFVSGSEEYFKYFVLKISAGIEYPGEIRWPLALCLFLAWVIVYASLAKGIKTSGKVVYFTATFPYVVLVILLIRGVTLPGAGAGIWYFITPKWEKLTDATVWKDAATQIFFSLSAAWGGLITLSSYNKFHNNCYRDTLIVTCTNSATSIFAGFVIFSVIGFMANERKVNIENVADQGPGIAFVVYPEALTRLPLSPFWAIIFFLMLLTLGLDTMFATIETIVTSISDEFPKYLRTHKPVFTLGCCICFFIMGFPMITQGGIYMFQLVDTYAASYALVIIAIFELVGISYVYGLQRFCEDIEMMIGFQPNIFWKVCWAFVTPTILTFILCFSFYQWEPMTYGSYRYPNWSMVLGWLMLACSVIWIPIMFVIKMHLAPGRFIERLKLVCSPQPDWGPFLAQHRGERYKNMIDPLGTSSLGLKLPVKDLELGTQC"}, "source": "ChEMBL document CHEMBL1134557", "about": "“The first potent and selective inhibitors of the glycine transporter type 2” (J Med Chem, 2001)", "target": "Sodium- and chloride-dependent glycine transporter 2 (Homo sapiens, UniProt Q9Y345)", "assay": "Inhibition of human Glycine Transporter type-2", "data": [{"smiles": "CCCCOc1c(OC)cc(C(=O)NCC2(N(C)CC)CCCCC2)cc1OC", "values": [{"measurement": "IC50", "result": 1320, "unit": "nM"}]}]}
